US10906888B2, “Pyrimidine carboxamides as inhibitors of Vanin-1 enzyme” (Pfizer Inc., priority 2016, dated 2021)

The chains behind the UniProt entries cited, without tags or fusion partners. Residues count along the entry.
UniProt O95497, 22-491 limits assumed: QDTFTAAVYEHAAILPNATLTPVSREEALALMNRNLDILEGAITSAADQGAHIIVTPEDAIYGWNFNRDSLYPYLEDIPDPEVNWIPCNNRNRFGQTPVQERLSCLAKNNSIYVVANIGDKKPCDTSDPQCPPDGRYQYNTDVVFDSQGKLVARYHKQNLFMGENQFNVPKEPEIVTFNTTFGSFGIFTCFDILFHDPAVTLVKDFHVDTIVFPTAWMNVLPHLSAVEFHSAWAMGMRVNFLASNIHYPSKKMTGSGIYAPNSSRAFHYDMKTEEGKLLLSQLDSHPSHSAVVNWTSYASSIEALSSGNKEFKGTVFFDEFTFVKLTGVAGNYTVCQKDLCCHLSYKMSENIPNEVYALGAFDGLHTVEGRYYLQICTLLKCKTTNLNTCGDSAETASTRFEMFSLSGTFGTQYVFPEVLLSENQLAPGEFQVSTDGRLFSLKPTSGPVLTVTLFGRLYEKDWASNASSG

Molecular target: human vanin-1 (Homo sapiens (Human), UniProt O95497)
Experiment: Human Vanin-1 Enzyme Assay 1
Format: biochemical
Details: read-out: Human Vanin-1 IC50; 25 pM human vanin-1, 50 uM pantetheine 7-amino-4-trifluoromethylcoumarin substrate

Molecule `C[C@H](Nc1ncc(C(=O)N2C[C@@H]3C[C@H]2CN3C)cn1)c1cnccn1` has an IC50 of 604 nM.
